What was measured:
[1] = system: patients with higher risk MDS; conditions: in vivo
[2] = system: patients with higher risk MDS; assay: AZA-001 analysis: number of AZA cycles to first and best response
[3] = system: patients with AML or high-risk MDS after HSCT
[4] = system: higher risk MDS patients ≥75 yrs of age

Nc1ncn([C@@H]2O[C@H](CO)[C@@H](O)[C@H]2O)c(=O)n1 [azacitidine, 4-amino-1-β-D-ribofuranosyl-1,3,5-triazin-2(1H)-one]
reduction in infections requiring intravenous antimicrobials vs CCR [1]: 34% | patients who achieved a CR, PR, or HI ([2]; 91 of 179 AZA-treated patients): 51% | median number of cycles to first response ([2]; 91 responders): 3 cycles | responders who had achieved a first response at 6 cycles ([2]; 91 responders): 81% | responders who had achieved a first response at 9 cycles ([2]; 91 responders): 90% | median additional treatment cycles after first response to improved response ([2]; in vivo): approximately 4 cycles | responders who improved their response status over the next 1-11 treatment cycles ([2]; n=38): 42% | safety ([3]; 32 mg/m2, at least 4 cycles): safe | AZA-associated (or possibly associated) toxicity: grade I/II thrombocytopenia ([3]; AZA 8-32 mg/m2 daily x5, 42 patients): 5 n | toxicity: grade II creatinine elevation ([3]; context of multiple nephrotoxic drugs): 1 n | toxicity: grade III elevation of transaminases ([3]; drug given with posaconazole and pentamidine): 1 n | toxicity: grade III thrombocytopenia ([3]; in association with MMF and sirolimus): 2 n | effect on acute or chronic GVHD incidence ([3]; in vivo): no indication of an effect | toxicity: grade I nausea ([3]; in vivo): 5 n | toxicity: grade II fatigue ([3]; in vivo): 2 n | toxicity: pruritus ([3]; in vivo): 1 n | toxicity: pulmonary hemorrhage ([3]; in vivo): 1 n | toxicity: oral ulcers ([3]; in vivo, po): 1 n | Anemia [4]: 42% | Discontinuations due to an AE [4]: 13% | HR OS, AZA vs CCR [4]: 0.48 | Infections [4]: 79% | OS rate at 2 years [4]: 55% | thrombocytopenia [4]: 71% | tolerability [4]: generally well tolerated | RBC transfusion-dependent patients at baseline who achieved TI ([4]; 10/23): 44% | KM median OS ([4]; AZA n=38, at 17.7 months of follow-up): not reached

Reference: patent US20100311683A1, “CYTIDINE ANALOGS FOR TREATMENT OF MYELODYSPLASTIC SYNDROMES” (priority 2007, published 2010)
